According to US6649595B2, “Regulation of biological events using novel compounds” (ARIAD Gene Therapeutics, Inc., priority 1995, dated 2003):

Test system: HT1080 cells transfected with ZFHD1-3FKBP, 1FRB-p65 (wild-type or mutant FRB) and SEAP reporter gene
Experiment: Rapalog-dependent SEAP transcriptional activation in transiently transfected cells
Conditions: engineered HT1080 cells

In the case of 13F, 28-F-rapamycin [Compound 108], the “stimulation of SEAP expression” value is reported as “stimulate expression”.
